From patent US20070112018A1, “Treatment of peripheral arterial occlusive disease” (priority 2005, published 2007) come the findings set out here.

In the test the test system is C. pneumoniae. Nature of the test: Rabbit model of atherosclerosis accelerated by C. pneumoniae infection, cholesterol diet. As to conditions: infected rabbits.

For `CO[C@H]1/C=C/O[C@@]2(C)Oc3c(C)c(O)c4c(=O)c(c5oc6cc(N7CCN(CC(C)C)CC7)cc(O)c6nc-5c4c3C2=O)NC(=O)/C(C)=C\C=C\[C@H](C)[C@H](O)[C@@H](C)[C@@H](O)[C@@H](C)[C@H](OC(C)=O)[C@@H]1C` [rifalazil, 3′-hydroxy-5′-(4-isobutyl-1-piperazinyl) benzoxazinorifamycin], the “infectious burden of Chlamydia in the vasculature” value (rifalazil p<0.001, azithromycin p=0.005) is recorded as “reduced the infectious burden of Chlamydia in the vasculature”. Further, the “plaque area stenosis compared with placebo-treated animals” value (text p=0.08 rifalazil, p=0.94 azithromycin) is on record as “trended towards producing significantly reduced plaque area stenosis”.
